Consider one molecule from ChEMBL document CHEMBL1145379 (J Med Chem, 2007).

This assay is filed under the species Bos taurus.

Turning to `CN1CCN(Cc2csc(C(=O)Nc3ccc(Cl)cc3C(=O)Nc3ccc(Cl)cc3)c2Cl)CC1`, the Ki/Km is > 5 µM.
